Test system: NIH/Swiss mice
Settings: dose 16.7 nmol/Kg i.p.

## HGEGAFTSDLSKQLEEEAVRLFIEFLKN-NH2 [Compound 12, reference compound]
  Mouse Food Intake, % basal, 180 min: −53 % basal

Reference: patent US8076288B2 (priority 2004, dated 2011)
